Assay results taken from US10562957B2, “Albumin-purification method comprising a nanofiltration step, solution, and composition for therapeutic use containing the same” (LABORATOIRE FRANCAIS DU FRACTIONNEMENT ET DES …, priority 2004, dated 2020).

How the values were obtained:
[1] = Equilibrium dialysis: binding of [^14C]diazepam by albumin compositions; conditions: for Ka [^14C]diazepam: binding constant (Ka) of diazepam on the albumin, equilibrium dialysis, phosphate buffer pH 7.4; for Percentage of albumin-bound [^14C] diazepam: albumin 2.5 g/L, pH 7.4, average of 5 tests
Description: (§1) For that purpose, three solutions A4 (Example 3) are provided, one of which has been nanofiltered under the conditions of the invention. These solutions are then processed into pharmaceutical formulations in a 0.07 M phosphate buffer, pH 7.4, to give albumin compositions, A′4, A″4 and A″′4, with concentrations of 2.5 g/L. The albumin compositions A″4 and A″′4, not nanofiltered, are pasteurised in the presence of sodium caprylate, respectively. A sample of 1 mL is taken from each of the compositions, and a volume of between 10 μL and 1 000 μL of a parent alcohol-based solution of [^14C]warfarine and [^14C]diazepam at 0.1 M respectively, two active ingredients of the respective class of anticoagulants and neurotropes, is added to the albumin compositions considered in order to provide variable concentrations in these active ingredients. The mixture is then homogenised.
(§2) The study of the properties of albumin in binding the two above active ingredients is based on the methodology of equilibrium dialysis, known to those skilled in the art, and whose principle is summarised below. A dialysis device including a cell with two compartments separated by a suitable dialysis membrane is obtained. One volume V of an albumin/active ingredient mixture is introduced into compartment 1 and the same volume V of dialysis buffer (phosphate buffer, as defined above) is introduced into compartment 2. Once the equilibrium is reached, after a few hours, compartment 1 contains albumin-bound and unbound active ingredient and compartment 2 contains unbound active ingredient. Some samples are taken from each compartment 1 and 2 and radioactivity is measured by liquid scintillation. These measurements determine the respective concentrations in albumin-bound and unbound active ingredients.
(§3) Table 10 gives the percentages of albumin-bound [^14C]diazepam obtained with compositions A′4, A″4 and A″′4 respectively, in which increasing volumes of active ingredient have been added. […] The results are shown as the average value of 5 tests.

[2] = Equilibrium dialysis: binding of [^14C]warfarine by albumin compositions; conditions: for Ka [^14C]warfarine: binding constant (Ka) of warfarine on the albumin, equilibrium dialysis, phosphate buffer pH 7.4; for Percentage of albumin-bound [^14C] warfarine: albumin 2.5 g/L, pH 7.4, average of 5 tests
Description: as §1, §2, §3

[3] = test system: bacteriophage virus Phi-X 174; assay: Viral reduction by nanofiltration of albumin solutions infected with bacteriophage; set-up: species or system bacteriophage Phi-X 174; conditions: albumin 20 g/L
Text: Once the filtration of a predetermined volume of albumin is achieved, the filter inlet is closed. For rinsing, one volume of purified water for injection (PWI) is introduced into the repressurised vessel 12, and the filter is flushed out. The filtrate is collected until a perceptible reduction in optical density which is monitored on the recording device 16. The downstream circuit is then flushed out to collect the finished filtrate. Samples are taken from the filtrate and submitted to subsequent analytic tests such as polymer assays, virus titrations, etc. The duration of filtration of one volume of albumin solution required to provide a fixed protein load is also measured, and the filtration yield is determined as the quotient between the albumin amount contained in the filtrate and in the retentate.
To show the influence of variations in the working conditions of the nanofiltration (filter surface area, pressure and temperature) and of the physicochemical parameters of the albumin solutions (pH, buffer composition), on the rate of viral reduction, viruses are introduced into different solutions of albumin A (20 g/L) which are submitted to nanofiltration tests. The tests are carried out by infecting the albumin solutions with bacteriophage virus Phi-X 174, suspensions of which are obtained in accordance with AFNOR Standard NFT 72-181 (December 1989). This virus is a good marker for the 15-nm filter as its size is between 25 and 30 nm, which corresponds to the non-enveloped viruses that are transmissible to humans, such as parvovirus B19, the inactivation by pasteurisation of which is not satisfactory.

Substance: A′4: albumin composition 2.5 g/L in 0.07 M phosphate buffer pH 7.4 from solution A4 nanofiltered without stabiliser
- Ka [^14C]diazepam [1]: 187 mM⁻¹
- Percentage of albumin-bound [^14C] diazepam ([1]; total [^14C]diazepam 1.68 ± 0.06 μm): 80.9 ± 1.46%
- Percentage of albumin-bound [^14C] diazepam ([1]; total [^14C]diazepam 4.17 ± 0.28 μm): 82.34 ± 1.92%
- Percentage of albumin-bound [^14C] diazepam ([1]; total [^14C]diazepam 8.04 ± 0.24 μm): 78.08 ± 1.83%
- Percentage of albumin-bound [^14C] diazepam ([1]; total [^14C]diazepam 40.09 ± 1.28 μm): 57.18 ± 2.14%
- Percentage of albumin-bound [^14C] diazepam ([1]; total [^14C]diazepam 65.27 ± 3.46 μm): 48.58 ± 1.49%
- Percentage of albumin-bound [^14C] diazepam ([1]; total [^14C]diazepam 115.02 ± 4.83 μm): 36.38 ± 1.69%
- Ka [^14C]warfarine [2]: 215 mM⁻¹
- Percentage of albumin-bound [^14C] warfarine ([2]; total [^14C]warfarine 1.99 ± 0.19 μm): 93.32 ± 0.49%
- Percentage of albumin-bound [^14C] warfarine ([2]; total [^14C]warfarine 10.12 ± 0.71 μm): 91.75 ± 0.75%
- Percentage of albumin-bound [^14C] warfarine ([2]; total [^14C]warfarine 34.29 ± 2.28 μm): 83.43 ± 1.11%
- Percentage of albumin-bound [^14C] warfarine ([2]; total [^14C]warfarine 62.73 ± 3.55 μm): 71.74 ± 1.20%
- Percentage of albumin-bound [^14C] warfarine ([2]; total [^14C]warfarine 103.66 ± 4.24 μm): 55.34 ± 2.94%
- Percentage of albumin-bound [^14C] warfarine ([2]; total [^14C]warfarine 123.43 ± 8.07 μm): 47.83 ± 2.03%

Substance: A″4: albumin composition 2.5 g/L, phosphate buffer pH 7.4, not nanofiltered, pasteurised in the presence of sodium caprylate
- Ka [^14C]diazepam [1]: 4.2 mM⁻¹
- Percentage of albumin-bound [^14C] diazepam ([1]; total [^14C]diazepam 1.09 ± 0.23 μm): 34.46 ± 2.04%
- Percentage of albumin-bound [^14C] diazepam ([1]; total [^14C]diazepam 5.52 ± 0.53 μm): 32.26 ± 1.34%
- Percentage of albumin-bound [^14C] diazepam ([1]; total [^14C]diazepam 21.95 ± 0.42 μm): 31.00 ± 0.93%
- Percentage of albumin-bound [^14C] diazepam ([1]; total [^14C]diazepam 42.84 ± 5.67 μm): 31.85 ± 2.99%
- Percentage of albumin-bound [^14C] diazepam ([1]; total [^14C]diazepam 85.00 ± 13.6 μm): 30.12 ± 2.00%
- Percentage of albumin-bound [^14C] diazepam ([1]; total [^14C]diazepam 109.79 ± 10.96 μm): 29.12 ± 2.67%
- Ka [^14C]warfarine [2]: 135 mM⁻¹
- Percentage of albumin-bound [^14C] warfarine ([2]; total [^14C]warfarine 1.71 ± 0.19 μm): 88.18 ± 0.82%
- Percentage of albumin-bound [^14C] warfarine ([2]; total [^14C]warfarine 8.35 ± 1.13 μm): 87.61 ± 0.84%
- Percentage of albumin-bound [^14C] warfarine ([2]; total [^14C]warfarine 30.97 ± 2.98 μm): 81.14 ± 2.07%
- Percentage of albumin-bound [^14C] warfarine ([2]; total [^14C]warfarine 54.40 ± 10.02 μm): 73.24 ± 3.46%
- Percentage of albumin-bound [^14C] warfarine ([2]; total [^14C]warfarine 102.08 ± 14.70 μm): 57.02 ± 4.36%
- Percentage of albumin-bound [^14C] warfarine ([2]; total [^14C]warfarine 119.90 ± 6.96 μm): 53.11 ± 3.46%

Substance: A″′4: second albumin A batch, composition 2.5 g/L, not nanofiltered, pasteurised in the presence of sodium caprylate
- Ka [^14C]diazepam [1]: 3.35 mM⁻¹
- Percentage of albumin-bound [^14C] diazepam ([1]; total [^14C]diazepam 1.23 ± 0.09 μm): 38.47 ± 1.88%
- Percentage of albumin-bound [^14C] diazepam ([1]; total [^14C]diazepam 2.91 ± 0.21 μm): 40.93 ± 4.83%
- Percentage of albumin-bound [^14C] diazepam ([1]; total [^14C]diazepam 11.55 ± 0.19 μm): 37.85 ± 1.25%
- Percentage of albumin-bound [^14C] diazepam ([1]; total [^14C]diazepam 44.98 ± 3.14 μm): 34.96 ± 0.6%
- Percentage of albumin-bound [^14C] diazepam ([1]; total [^14C]diazepam 86.09 ± 5.01 μm): 33.04 ± 1.17%
- Percentage of albumin-bound [^14C] diazepam ([1]; total [^14C]diazepam 107.97 ± 9.43 μm): 30.74 ± 1.78%
- Ka [^14C]warfarine [2]: 118 mM⁻¹
- Percentage of albumin-bound [^14C] warfarine ([2]; total [^14C]warfarine 1.69 ± 0.08 μm): 88.58 ± 0.32%
- Percentage of albumin-bound [^14C] warfarine ([2]; total [^14C]warfarine 8.33 ± 0.30 μm): 87.66 ± 0.28%
- Percentage of albumin-bound [^14C] warfarine ([2]; total [^14C]warfarine 31.65 ± 0.72 μm): 80.39 ± 0.89%
- Percentage of albumin-bound [^14C] warfarine ([2]; total [^14C]warfarine 57.17 ± 3.81 μm): 71.01 ± 1.68%
- Percentage of albumin-bound [^14C] warfarine ([2]; total [^14C]warfarine 104.64 ± 6.28 μm): 55.04 ± 0.68%
- Percentage of albumin-bound [^14C] warfarine ([2]; total [^14C]warfarine 127.98 ± 4.83 μm): 49.77 ± 2.66%

Substance: albumin A: albumin from fractionation of human plasma according to Kistler et al.; reference solution 20 g/L, pH 7, 9 g/L NaCl
- Viral reduction ([3]; 15-nm filter 0.001 m^2, 0.2 bar, 35 ° C., 280 mosm, NaCl: 0.15 M, pH 7.2): >5.0 Δ log
- Viral reduction ([3]; 15-nm filter 0.001 m^2, 0.5 bar, 26 ° C., 280 mosm, NaCl: 0.15 M, pH 7.2): >5.5 Δ log
- Viral reduction ([3]; 15-nm filter 0.001 m^2, 0.5 bar, 35 ° C., 280 mosm, NaCl: 0.15 M, Tween ®80: 0.06%, pH 7.2): >6.5 Δ log
- Viral reduction ([3]; 15-nm filter 0.001 m^2, 0.5 bar, 35 ° C., 280 mosm, NaCl: 0.15 M, pH 4.1): >6.0 Δ log
- Viral reduction ([3]; 15-nm filter 0.001 m^2, 0.5 bar, 35 ° C., 280 mosm, NaCl: 0.15 M, pH 7.2): 6.5 Δ log
- Viral reduction ([3]; 15-nm filter 0.001 m^2, 0.5 bar, 35 ° C., 335 mosm, Na2SO4: 0.15 M, pH 7.2): 3.7 Δ log
- Viral reduction ([3]; 15-nm filter 0.001 m^2, 0.5 bar, 35 ° C., 555 mosm, NaCl: 0.30 M, pH 7.2): 4.2 Δ log
- Viral reduction ([3]; 15-nm filter 0.001 m^2, 0.5 bar, 35 ° C., 610 mosm, NaCl: 0.15 M, Sucrose: 100 g/L, pH 7.2): >6.3 Δ log
- Viral reduction ([3]; 15-nm filter 0.001 m^2, 1.0 bar, 35 ° C., 280 mosm, NaCl: 0.15 M, pH 7.2): 4.9 Δ log
- Viral reduction ([3]; 15-nm filter 0.01 m^2, 0.5 bar, 35 ° C., 280 mosm, NaCl: 0.15 M, pH 7.2): 5.9 Δ log
